Data taken from ChEMBL document CHEMBL4825702, “5-Aminonaphthalene derivatives as selective nonnucleoside nuclear receptor binding SET domain-protein 2 (NSD2) inhibitors for the treatment of multiple myeloma” (Eur J Med Chem, 2021).

Target: T1, Histone-lysine N-methyltransferase NSD2 (Homo sapiens, UniProt O96028)
T1 sequence (O96028 whole entry): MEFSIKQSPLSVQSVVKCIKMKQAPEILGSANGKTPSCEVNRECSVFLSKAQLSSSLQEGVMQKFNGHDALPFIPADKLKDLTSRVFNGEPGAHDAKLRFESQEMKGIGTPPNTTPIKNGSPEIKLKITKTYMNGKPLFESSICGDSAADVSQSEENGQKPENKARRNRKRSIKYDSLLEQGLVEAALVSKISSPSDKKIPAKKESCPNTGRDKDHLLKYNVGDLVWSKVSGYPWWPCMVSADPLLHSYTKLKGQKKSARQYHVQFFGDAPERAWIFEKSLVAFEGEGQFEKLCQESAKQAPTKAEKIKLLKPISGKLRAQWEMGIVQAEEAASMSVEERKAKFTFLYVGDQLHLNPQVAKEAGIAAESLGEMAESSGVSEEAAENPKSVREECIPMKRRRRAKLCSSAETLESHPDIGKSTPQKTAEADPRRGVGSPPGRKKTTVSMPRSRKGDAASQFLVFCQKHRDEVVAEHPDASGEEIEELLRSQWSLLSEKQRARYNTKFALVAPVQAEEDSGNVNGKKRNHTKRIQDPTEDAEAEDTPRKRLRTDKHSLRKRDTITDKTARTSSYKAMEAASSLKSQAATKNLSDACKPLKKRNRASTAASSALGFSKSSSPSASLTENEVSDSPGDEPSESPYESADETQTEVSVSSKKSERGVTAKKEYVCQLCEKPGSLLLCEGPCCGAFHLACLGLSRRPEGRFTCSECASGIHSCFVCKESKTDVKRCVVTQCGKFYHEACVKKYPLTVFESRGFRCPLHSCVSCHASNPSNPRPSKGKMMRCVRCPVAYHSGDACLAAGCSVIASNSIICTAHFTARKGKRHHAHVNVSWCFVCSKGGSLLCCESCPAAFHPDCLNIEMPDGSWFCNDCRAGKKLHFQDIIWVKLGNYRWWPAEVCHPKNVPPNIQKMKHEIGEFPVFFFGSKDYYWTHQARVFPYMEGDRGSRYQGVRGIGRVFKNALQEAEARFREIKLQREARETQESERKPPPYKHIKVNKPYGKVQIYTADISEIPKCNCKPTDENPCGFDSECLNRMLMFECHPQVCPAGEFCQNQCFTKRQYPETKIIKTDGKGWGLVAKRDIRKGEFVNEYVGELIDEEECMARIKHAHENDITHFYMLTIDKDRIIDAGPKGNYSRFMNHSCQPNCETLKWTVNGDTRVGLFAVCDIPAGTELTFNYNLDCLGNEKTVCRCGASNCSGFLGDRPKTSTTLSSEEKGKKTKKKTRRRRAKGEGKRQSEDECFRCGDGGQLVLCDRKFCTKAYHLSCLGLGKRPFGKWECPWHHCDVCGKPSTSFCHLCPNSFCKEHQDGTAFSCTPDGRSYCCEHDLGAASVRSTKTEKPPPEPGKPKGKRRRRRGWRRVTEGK
Test: Inhibition of recombinant human N-terminal GST-tagged NSD2 CD (941 to 1240 residues) expressed in Escherichia coli using SAM as substrate in presence of nucleosomes by AlphaLISA method

IC50: 39.1 µM
SMILES: Nc1ncnc2c1ncn2[C@@H]1O[C@H](CSCC[C@H](N)C(=O)O)[C@@H](O)[C@H]1O [S-ADENOSYLHOMOCYSTEINE]
